Laboratory results reported in patent US20100184636.

Target: endogenous raptor

B1: PLD2^K758R (protein)
chain: MTATPESLFPTGDELDSSQLQMESDEVDTLKEGEDPADRMHPFLAIYELQSLKVHPLVFAPGVPVTAQVVGTERYTSGSKVGTCTLYSVRLTHGDFSWTTKKKYRHFQELHRDLLRHKVLMSLLPLARFAVAYSPARDAGNREMPSLPRAGPEGSTRHAASKQKYLENYLNCLLTMSFYRNYHAMTEFLEVSQLSFIPDLGRKGLEGMIRKRSGGHRVPGLTCCGRDQVCYRWSKRWLVVKDSFLLYMCLETGAISFVQLFDPGFEVQVGKRSTEARHGVRIDTSHRSLILKCSSYRQARWWAQEITELAQGPGRDFLQLHRHDSYAPPRPGTLARWFVNGAGYFAAVADAILRAQEEIFITDWWLSPEVYLKRPAHSDDWRLDIMLKRKAEEGVRVSILLFKEVELALGINSGYSKRALMLLHPNIKVMRHPDQVTLWAHHEKLLVVDQVVAFLGGLDLAYGRWDDLHYRLTDLGDSSESAASQPPTPRPDSPATPDLSHNQFFWLGKDYSNLITKDWVQLDRPFEDFIDRETTPRMPWRDVGVVVHGLPARDLARHFIQRWNFTKTTKAKYKTPIYPYLLPKSTSTANQLPFTLPGGQCTTVQVLRSVDRWSAGTLENSILNAYLHTIRESQHFLYIENQFFISCSDGRTVLNKVGDEIVDRILKAHKQGWCYRVYVLLPLLPGFEGDISTGGGNSIQAILHFTYRTLCRGEYSILHRLKAAMGTAWRDYISICGLRTHGELGGHPVSELIYIHSRVLIADDRTVIIGSANINDRSLLGKRDSELAVLIEDTETEPSLMNGAEYQAGRFALSLRKHCFGVILGANTRPDLDLRDPICDDFFQLWQDMAESNANIYEQIFRCLPSNATRSLRTLREYVAVEPLATVSPPLARSELTQVQGHLVHFPLKFLEDESLLPPLGSKEGMIPLEVWT
exogenous PA-dependent phosphorylation of S6K1 (add-back): the exogenous PA-dependent phosphorylation of S6K1 was rescued by PLD2^wt and PLD2^K758R, but not by PLD2^F265A and PLD2^E266R
